Source: publication PMC6364417, “Kinase inhibitor library screening identifies synergistic drug combinations effective in sensitive and resistant melanoma cells” (Journal of Experimental & Clinical Cancer Research : CR, 2019)

Assays:
Assay in all cases: Kinase inhibitor library screening, PrestoBlue cell viability, 1 or 10 μM, 72 h
[1] = tested on: IGR37-GP cells (Dabrafenib-resistant)
[2] = tested on: 501Mel cells (parental); conditions: for cell viability (kinase inhibitor library screening): 501Mel Parental
[3] = tested on: A375 cells (parental)
[4] = tested on: IGR37 cells (parental)
[5] = tested on: IGR37-XP cells (Vemurafenib-resistant); conditions: for cell viability (kinase inhibitor library screening): 1μΜ
[6] = tested on: 501Mel-XP cells (Vemurafenib-resistant); conditions: 1μΜ
[7] = tested on: A375-XP cells (Vemurafenib-resistant)
[8] = tested on: 501Mel-GP cells (Dabrafenib-resistant); conditions: 1μΜ
[9] = tested on: A375-GP cells (Dabrafenib-resistant); conditions: for cell viability, A375 GP, 1μΜ: in %

Compound: Cc1ccc(NC(=O)c2ccc(CN3CCN(C)CC3)cc2)cc1Nc1nc(-c2cccnc2)cs1 [Masitinib (AB1010)]
- cell viability (kinase inhibitor library screening) ([1]; 1μΜ): 98.7%
- cell viability (kinase inhibitor library screening) ([2]; 1μΜ): 101.8%
- cell viability (kinase inhibitor library screening) ([3]; 1μΜ): 102.3%

Compound: CCCCCCCCCCCCc1ccc(S(=O)(=O)Nc2nncs2)cc1 [PHT-427]
- cell viability (kinase inhibitor library screening) ([4]; 1μΜ): 102.0%
- cell viability (kinase inhibitor library screening) [5]: 101.3%
- cell viability (kinase inhibitor library screening) [6]: 98.7%
- cell viability (kinase inhibitor library screening) ([3]; 1μΜ): 102.3%

Compound: CNC(=O)c1ccc(-c2cnc3ncc(Cc4ccc5ncccc5c4)n3n2)cc1F [INCB28060]
- cell viability (kinase inhibitor library screening) ([3]; 10μΜ): 102.1%

Compound: N#Cc1c(O)c2c(-c3ccc(-c4ccccc4O)cc3)csc2[nH]c1=O [A-769662]
- cell viability (kinase inhibitor library screening) ([7]; 10μΜ): 101.5%
- cell viability (kinase inhibitor library screening) ([1]; 1μΜ): 101.3%
- cell viability (kinase inhibitor library screening) [8]: 102.4%
- cell viability (kinase inhibitor library screening) ([9]; 1μΜ): 101.2%

Compound: Cc1cnc(NC(=O)Nc2cc(Br)c(C)cc2OC[C@@H]2CNCCO2)cn1 [LY2603618 (IC-83)]
- cell viability (kinase inhibitor library screening) ([9]; 1μΜ): 72.5%

Compound: CNC(=O)c1cc(Oc2ccc(NC(=O)Nc3cc(C(C)(C)C)nn3-c3ccc4ncccc4c3)c(F)c2)ccn1 [DCC-2036 (Rebastinib)]
- cell viability (kinase inhibitor library screening) ([1]; 1μΜ): 101.4%

Compound: Nc1nccc(Oc2ccc(NC(=O)c3c[nH]cc(-c4ccc(F)cc4)c3=O)cc2F)c1Cl [BMS 794833]
- cell viability (kinase inhibitor library screening) ([9]; 1μΜ): 101.3%
- cell viability (kinase inhibitor library screening) ([3]; 1μΜ): 102.1%

Compound: OCCn1cc(-c2cnc3nnn(Cc4ccc5ncccc5c4)c3n2)cn1 [PF-04217903]
- cell viability (kinase inhibitor library screening) [5]: 100.8%
- cell viability (kinase inhibitor library screening) ([9]; 1μΜ): 101.6%
- cell viability (kinase inhibitor library screening) ([9]; 10μΜ): 101.9%
- cell viability (kinase inhibitor library screening) ([3]; 10μΜ): 102.0%

Compound: AZD4547
- cell viability, A375 GP, 1μΜ ([9]; 1μΜ): 97.7

Compound: COCCNCc1ccc(-c2cc3nccc(Oc4ccc(NC(=S)NC(=O)Cc5ccc(F)cc5)cc4F)c3s2)nc1 [MGCD-265]
- cell viability (kinase inhibitor library screening) ([3]; 1μΜ): 102.5%

Compound: Cc1csc(-c2nnc(Nc3ccc(Oc4ncccc4-c4ccnc(N)n4)cc3)c3ccccc23)c1 [AMG 900]
- cell viability (kinase inhibitor library screening) ([1]; 1μΜ): 100.6%

Compound: S=C(NCc1ccc2c(c1)OCO2)N1CCN(c2ncnc3c2oc2ccccc23)CC1 [Amuvatinib (MP-470)]
- cell viability (kinase inhibitor library screening) [5]: 97.5%

Compound: CCOc1ccn(-c2ccc(F)cc2)c(=O)c1C(=O)Nc1ccc(Oc2ccnc(N)c2Cl)c(F)c1 [BMS 777607]
- cell viability (kinase inhibitor library screening) ([7]; 1μΜ): 102.5%
- cell viability (kinase inhibitor library screening) [8]: 81.3%
- cell viability (kinase inhibitor library screening) ([9]; 1μΜ): 100.8%

Compound: MK-2206 dihydrochloride
- cell viability (kinase inhibitor library screening) ([4]; 1μΜ): 103.1%
- cell viability (kinase inhibitor library screening) ([3]; 1μΜ): 101.2%

Compound: CS(=O)(=O)CCNCc1ccc(-c2ccc3ncnc(Nc4ccc(OCc5cccc(F)c5)c(Cl)c4)c3c2)o1.Cc1ccc(S(=O)(=O)O)cc1.Cc1ccc(S(=O)(=O)O)cc1 [Lapatinib Ditosylate (Tykerb)]
- cell viability, IGR37 Parental, 1μΜ ([4]; 1μΜ, in %): 99.4
- cell viability, IGR37 XP, 1μΜ ([5]; in %): 94.9
- cell viability, IGR37 GP, 1μΜ ([1]; 1μΜ, in %): 100.0
- cell viability, 501Mel Parental, 1μΜ ([2]; 1μΜ, in %): 103.1
- cell viability, A375 GP, 1μΜ ([9]; 1μΜ): 108.6

Compound: Cn1cc(-c2ccc3nnc(C(F)(F)c4ccc5ncccc5c4)n3n2)cn1 [JNJ-38877605]
- cell viability (kinase inhibitor library screening) ([9]; 1μΜ): 100.6%

Compound: Nc1nc(Nc2ccc(S(N)(=O)=O)cc2)nn1C(=O)c1c(F)cccc1F [JNJ-7706621]
- cell viability (kinase inhibitor library screening) ([2]; 1μΜ): 102.2%

Compound: CC(C)c1cnn2c(NCc3ccccc3)cc(NCCCCCCN)nc12.Cl [BS-181 HCl]
- cell viability (kinase inhibitor library screening) ([4]; 10μΜ): 101.3%
- cell viability (kinase inhibitor library screening) ([3]; 1μΜ): 101.1%

Compound: CCn1c(-c2nonc2N)nc2c(C#CC(C)(C)O)ncc(OC[C@H]3CCCNC3)c21 [GSK690693]
- cell viability (kinase inhibitor library screening) ([3]; 1μΜ): 101.2%

Compound: CN(C)c1ccc(-c2nc3ncc(Cl)c(N4CCN(CC(=O)Nc5nccs5)CC4)c3[nH]2)cc1 [CCT129202]
- cell viability (kinase inhibitor library screening) ([3]; 1μΜ): 102.2%

Compound: O=c1cc(-c2cccc3c2Sc2ccccc2S3)oc(N2CCOCC2)c1 [KU-55933]
- cell viability (kinase inhibitor library screening) ([2]; 1μΜ): 101.2%

Compound: COc1ccc2c(Oc3ccc(NC(=O)c4c(C)n(CC(C)(C)O)n(-c5ccccc5)c4=O)nc3)ccnc2c1 [AMG458]
- cell viability (kinase inhibitor library screening) ([4]; 10μΜ): 102.4%
- cell viability (kinase inhibitor library screening) [6]: 101.0%
- cell viability (kinase inhibitor library screening) ([2]; 1μΜ): 101.3%
- cell viability (kinase inhibitor library screening) ([2]; 10μΜ): 101.3%

Compound: CC(C)CC(=O)Nc1[nH]nc2c1CN(C(=O)C1CCN(C)CC1)C2(C)C [PHA-793887, reference compound]
- cell viability (kinase inhibitor library screening) [8]: 102.0%

Compound: CCc1cc2c(cc1N1CCC(N3CCOCC3)CC1)C(C)(C)c1[nH]c3cc(C#N)ccc3c1C2=O [CH5424802]
- cell viability (kinase inhibitor library screening) ([9]; 1μΜ): 101.0%

Compound: COc1cc(N2CCC(N3CCN(C)CC3)CC2)ccc1Nc1ncc(Cl)c(Nc2ccccc2S(=O)(=O)C(C)C)n1 [TAE684 (NVP-TAE684)]
- cell viability (kinase inhibitor library screening) [6]: 101.8%

Compound: CC(=O)c1c(C)c2cnc(Nc3ccc(N4CCNCC4)cn3)nc2n(C2CCCC2)c1=O.Cl [PD 0332991 (Palbociclib) HCl]
- cell viability (kinase inhibitor library screening) ([4]; 10μΜ): 72.5%
- cell viability (kinase inhibitor library screening) ([1]; 1μΜ): 102.5%

Compound: CCn1cc(-c2ccnc3[nH]c(-c4cccc(CN(C)C)c4)cc23)c(-c2ccc(NC(=O)N(C)C)cc2)n1 [GSK1070916]
- cell viability (kinase inhibitor library screening) [8]: 100.7%

Compound: Cc1cc(CN2CCN(c3c(Br)cnc4nc(-c5ccc(N6CCN(C)CC6)cc5)[nH]c34)CC2)no1 [CCT137690]
- cell viability (kinase inhibitor library screening) ([7]; 1μΜ): 62.3%

Compound: CC(C)NC[C@@H](C(=O)N1CCN(c2ncnc3c2[C@H](C)C[C@H]3O)CC1)c1ccc(Cl)cc1 [GDC-0068]
- cell viability (kinase inhibitor library screening) ([7]; 1μΜ): 100.9%
- cell viability (kinase inhibitor library screening) ([9]; 1μΜ): 100.6%

Compound: Cc1cc(Nc2cc(N3CCN(C)CC3)nc(Sc3ccc(NC(=O)C4CC4)cc3)n2)n[nH]1 [VX-680 (MK-0457, Tozasertib)]
- cell viability (kinase inhibitor library screening) [5]: 97.5%

Compound: O=C(O)[C@]1(Cc2cccc(Nc3nccs3)n2)CC[C@@H](Oc2cccc(Cl)c2F)CC1 [MK-5108 (VX-689)]
- cell viability (kinase inhibitor library screening) ([1]; 1μΜ): 102.5%

Compound: Cc1[nH]c(/C=C2\C(=O)Nc3ccc(S(=O)(=O)Cc4c(Cl)cccc4Cl)cc32)c(C)c1C(=O)N1CCC[C@@H]1CN1CCCC1 [PHA-665752]
- cell viability (kinase inhibitor library screening) [5]: 101.4%

Compound: C[C@@H]1CN(CC(=O)Nc2ccc3c(c2)Cc2cccc(-c4cc(=O)cc(N5CCOCC5)o4)c2S3)C[C@H](C)O1 [KU-60019]
- cell viability (kinase inhibitor library screening) ([7]; 1μΜ): 102.4%
- cell viability (kinase inhibitor library screening) ([4]; 1μΜ): 98.7%
- cell viability (kinase inhibitor library screening) [5]: 102.5%
- cell viability (kinase inhibitor library screening) ([1]; 10μΜ): 72.5%
- cell viability (kinase inhibitor library screening) ([3]; 1μΜ): 100.6%

Compound: CN(C[C@@H]1COCCO1)S(=O)(=O)Nc1ccc2ccc3ncc(-c4cnn(C)c4)cc3c(=O)c2c1 [MK-2461]
- cell viability (kinase inhibitor library screening) ([1]; 1μΜ): 102.4%
- cell viability (kinase inhibitor library screening) ([9]; 1μΜ): 101.3%

Compound: Cn1cc(-c2ccc3nnc(Sc4ccc5ncccc5c4)n3n2)cn1 [SGX-523]
- cell viability (kinase inhibitor library screening) ([7]; 1μΜ): 101.5%
- cell viability (kinase inhibitor library screening) ([7]; 10μΜ): 102.2%
